Laboratory results reported in patent publication US10071095B2, “1,2,4-triazolo [4,3-A] pyridine derivatives and their use for the treatment of neurological and psychiatric disorders” (JANSSEN PHARMACEUTICALS, INC., priority 2009, dated 2018).

The chains behind the UniProt entries cited, without tags or fusion partners. Residues count along the entry.
UniProt Q14416, 19-872 limits assumed: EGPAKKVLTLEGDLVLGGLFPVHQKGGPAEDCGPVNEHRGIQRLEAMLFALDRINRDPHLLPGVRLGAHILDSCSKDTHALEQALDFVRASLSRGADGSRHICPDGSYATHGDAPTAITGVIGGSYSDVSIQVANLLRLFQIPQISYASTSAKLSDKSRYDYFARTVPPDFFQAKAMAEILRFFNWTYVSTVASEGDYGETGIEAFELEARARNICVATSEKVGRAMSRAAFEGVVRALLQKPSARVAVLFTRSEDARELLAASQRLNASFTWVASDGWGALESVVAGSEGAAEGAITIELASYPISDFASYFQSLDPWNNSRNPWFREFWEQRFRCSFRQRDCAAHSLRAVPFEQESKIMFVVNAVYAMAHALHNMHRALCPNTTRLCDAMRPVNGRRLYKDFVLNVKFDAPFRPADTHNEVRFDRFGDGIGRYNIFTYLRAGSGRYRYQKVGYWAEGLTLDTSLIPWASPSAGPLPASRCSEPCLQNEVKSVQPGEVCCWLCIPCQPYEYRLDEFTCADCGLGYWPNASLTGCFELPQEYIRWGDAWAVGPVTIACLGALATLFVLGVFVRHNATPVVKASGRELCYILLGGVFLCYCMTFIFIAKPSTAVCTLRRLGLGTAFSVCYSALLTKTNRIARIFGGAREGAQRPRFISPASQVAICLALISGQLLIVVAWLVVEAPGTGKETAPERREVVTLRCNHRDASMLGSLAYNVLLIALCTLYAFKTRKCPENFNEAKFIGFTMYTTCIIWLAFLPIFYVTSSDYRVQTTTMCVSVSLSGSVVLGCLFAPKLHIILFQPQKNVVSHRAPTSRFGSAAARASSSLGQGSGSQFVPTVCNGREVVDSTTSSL

Legend:
human mGluR2 receptor = human mGluR2 receptor (Homo sapiens, UniProt Q14416); test: [35S]GTPγS binding assay, positive allosteric modulation (GTPγS-PAM) in presence of EC20 glutamate; type: biochemical; details: in presence of glutamate at EC20; average pEC50 if more experiments; ‡ means tested once
[1] = test system: PCP-induced hyperlocomotion in male NMRI mice; test: Phencyclidine (PCP)-induced hyperlocomotion in mice (video tracking); details: for Mice ED50 (mg/kg) PCP-Inh., estimated ED50 (footnote a): inhibition of PCP-induced hyperlocomotion, estimated ED50 values (n = 3 per dose; 4-fold separation between doses)

| GTPγS - hR2 PAM pEC50 (human mGluR2 receptor) | SMILES | inhibition of PCP-induced hyperlocomotion in mice (in words) [1] | Mice ED50 (mg/kg) PCP-Inh., estimated ED50 (footnote a) [1] |
| --- | --- | --- | --- |
| 6.84 | CCc1nnc2c(C(F)(F)F)c(CN3CCC(c4ccccc4)CC3)ccn12 | inhibited | 20 ^a) mg/kg |
| 6.61 ‡ | CCCc1nnc2c(C(F)(F)F)c(CN3CCN(c4ccc(F)cc4F)CC3)ccn12 | inhibited | 1.25 ^a) mg/kg |
| 7.05 | CC1(c2ccccc2F)CCN(Cc2ccn3c(CC(F)(F)F)nnc3c2Cl)CC1 | inhibited | 3.2 ^a) mg/kg |
| 7.29 | CCCc1nnc2c(C(F)(F)F)c(CN3CCC(c4ccccc4)CC3)ccn12 |  | 7.9 ^a) mg/kg |
